Experimental data from patent US10869933B2, “Oligomer-phenothiazine conjugates” (Nektar Therapeutics, priority 2009, dated 2020).

Protein sequences, listed by entry. Tags and fused reporters are not part of them.
UniProt P08173, whole entry: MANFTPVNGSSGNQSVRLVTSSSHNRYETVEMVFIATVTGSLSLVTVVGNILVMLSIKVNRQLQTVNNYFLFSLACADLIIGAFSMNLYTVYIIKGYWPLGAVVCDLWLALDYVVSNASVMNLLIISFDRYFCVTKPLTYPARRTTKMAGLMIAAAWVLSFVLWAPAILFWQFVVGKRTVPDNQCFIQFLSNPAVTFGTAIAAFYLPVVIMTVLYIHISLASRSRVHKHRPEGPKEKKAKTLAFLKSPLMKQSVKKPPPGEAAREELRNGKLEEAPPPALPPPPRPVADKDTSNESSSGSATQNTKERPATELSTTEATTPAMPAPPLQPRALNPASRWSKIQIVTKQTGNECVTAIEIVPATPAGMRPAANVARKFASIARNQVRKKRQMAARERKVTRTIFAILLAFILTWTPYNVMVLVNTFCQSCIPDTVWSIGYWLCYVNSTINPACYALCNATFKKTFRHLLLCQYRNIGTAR
UniProt P08912, whole entry: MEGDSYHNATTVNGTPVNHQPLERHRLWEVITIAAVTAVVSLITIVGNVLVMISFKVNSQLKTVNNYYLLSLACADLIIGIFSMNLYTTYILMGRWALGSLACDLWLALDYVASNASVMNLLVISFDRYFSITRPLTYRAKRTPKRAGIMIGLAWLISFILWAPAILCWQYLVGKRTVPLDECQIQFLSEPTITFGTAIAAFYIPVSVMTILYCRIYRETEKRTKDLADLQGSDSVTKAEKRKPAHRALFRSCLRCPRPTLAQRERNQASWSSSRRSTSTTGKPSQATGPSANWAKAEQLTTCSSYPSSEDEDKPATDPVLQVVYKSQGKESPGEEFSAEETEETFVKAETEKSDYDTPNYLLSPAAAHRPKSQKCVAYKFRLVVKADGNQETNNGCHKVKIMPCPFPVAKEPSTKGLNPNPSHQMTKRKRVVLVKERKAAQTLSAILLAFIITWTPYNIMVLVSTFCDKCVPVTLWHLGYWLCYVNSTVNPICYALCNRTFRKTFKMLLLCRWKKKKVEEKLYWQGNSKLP

Legend:
[1] = rat, in vivo, iv, 5 mg/kg, 1 h
[2] = in vivo; settings: rat, iv, 5 mg/kg, Brain/plasma ratio Mean
[3] = molecular target: T1, recombinant human M4 muscarinic acetylcholine receptor (Homo sapiens, UniProt P08173); experiment: Muscarinic M4 receptor radioligand binding; settings: 3H-N-Methylscopolamine 0.8 nM, CHO cell membranes
T1 construct: expressed in transfected cells; host or cells: CHO cells (membranes)

[4] = molecular target: T2, recombinant human M5 muscarinic acetylcholine receptor (Homo sapiens, UniProt P08912); experiment: Muscarinic M5 receptor radioligand binding; settings: 3H-N-Methylscopolamine 0.8 nM, CHO cell membranes
T2 construct: expressed in transfected cells; host or cells: CHO cells (membranes)

Compound	Brain/plasma ratio Mean [1]	Kp at 1 h [2]	Ki [3] [µM]	Ki [4] [µM]
CC(CN1c2ccccc2Sc2ccccc21)N(C)C (stereo not shown) [Promethazine, reference compound]	39.926	39.9		
mPEG9-N-promethazine			0.455	2.05
